Test results: patent US20260315474A1 (BRISTOL-MYERS SQUIBB COMPANY, priority 2023, published 2026)

Legend:
[1] = test system: activated partial thromboplastin time (aPTT); assay: Activated partial thromboplastin time (aPTT), AXIOMATIC-SSP; format: in vivo, human; details: 25 mg QD to 200 mg BID
[2] = test system: activated partial thromboplastin time (aPTT); assay: aPTT after multiple oral doses in healthy subjects; format: in vivo, human
prothrombin time (PT) = assay: Prothrombin time (PT); details: single or multiple doses, human subjects

In the case of `C[C@@H]1CCC[C@H](n2cnc(-c3cc(Cl)ccc3-n3cc(Cl)nn3)cc2=O)c2cc(ccn2)-c2c(cnn2C(F)F)NC1=O` [milvexian, (5R,9S)-9-(4-(5-chloro-2-(4-chloro-1H-1,2,3-triazol-1-yl)phenyl)-6-oxopyrimidin-1(6H)-yl)-2^1-(difluoromethyl)-5-methyl-2^1H-3-aza-1(4,2)-pyridina-2(5,4)-pyrazolacyclonaphan-4-one], the “dose-response of aPTT” value [1] is reported as “dose-dependent increase in aPTT percent change from baseline; also recorded: Dose-dependent increases in aPTT”, the “effect on aPTT” value [2] is reported as “dose- and concentration-dependent prolongation of aPTT” and the “effect on prothrombin time” value (prothrombin time (PT)) is reported as “not impacted”.

Entries after “also recorded” stand apart in the source; their conditions may differ.
